# Binding of CDR-mutated scFvs to a peptide of the spike HR2 region

The measurements come from Engelhart et al. 2022 (doi:10.1038/s41597-022-01779-4) through the FLAb antibody collection.

The target is the same throughout: PDVDLGDISGINAS, from the HR2 region of SARS-CoV-2 spike.

Each scFv is VH, three GGGGS repeats, VL, as in the parent Ab-14, and differs from it in the CDRs of the heavy chain only.
VH: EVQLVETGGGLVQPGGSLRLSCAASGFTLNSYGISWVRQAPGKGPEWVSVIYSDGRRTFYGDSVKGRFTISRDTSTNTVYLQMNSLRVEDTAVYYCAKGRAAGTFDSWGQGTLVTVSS
VL: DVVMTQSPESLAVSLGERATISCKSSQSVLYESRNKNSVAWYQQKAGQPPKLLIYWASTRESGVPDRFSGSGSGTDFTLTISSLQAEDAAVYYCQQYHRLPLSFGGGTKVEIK

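Variants in AAYL49 differ from the parent at up to three CDR positions; double and triple changes were sampled at random. In AlphaSeq, yeast of one mating type display the scFv and yeast of the other type display the target. Pairs that bind mate more often; barcode pairs of the diploids are counted by sequencing. Read counts were normalised to the haploid input and turned into Kd by a linear fit to BCL2-family pairs of known affinity, for each replicate. There are three technical replicates.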

Positions count from residue 1 of the parent VH; V50H puts H in place of V. Affinities are written as log10 Kd with Kd in nM; a lower number is a better binder. An entry "ND" has no value in the source: the pair was not observed among the diploids in that replicate. This suggests poor binding but is not conclusive. Empty control strains, which show no peptide, gave a signal in 15% of pairings with library AAYL49; the median was 4.06 and 95% of these signals were weaker than 2.83. No background was subtracted. Also given: how often the same scFv was detected with the empty control strains, with their mean in brackets. In this assay the parent's reference entry averaged 0.65; its copy inside this library read 4.11 (one replicate of three).

| changes | log10 Kd, replicates | empty controls |
|---|---|---|
| V50H T58I S63W | 4.75 / ND / ND | 2 of 9 (4.54) |
| D54Q V64C | ND / ND / ND | 1 of 9 (3.37) |
| N30A G61R S63E | 0.92 / 0.97 / 0.99 | 2 of 9 (3.62) |
| G33D T104L S107D | 4.57 / ND / 3.40 | 2 of 9 (3.94) |
| T58R F59K D62W | ND / ND / ND | 1 of 9 (2.11) |
| G55E F59A D62W | ND / ND / ND | 0 of 9 |
| G55H D62F V64S | 3.78 / ND / ND | 3 of 9 (4.29) |
| G26N V64N G103Q | ND / ND / ND | 0 of 9 |
| G33Y D62I S63Y | ND / ND / ND | 0 of 9 |
| G26T S35M S63L | ND / ND / ND | 0 of 9 |
| G33Q Y52M D62A | ND / ND / ND | 5 of 9 (4.92) |
| N30A I34L D54R | ND / ND / ND | 1 of 9 (4.60) |
| L29F S31H R57M | ND / ND / ND | 0 of 9 |
| S53P G61C K65A | 2.68 / 2.44 / 2.24 | 0 of 9 |
| T28Q Y32C S35H | 3.25 / 2.75 / 3.71 | 3 of 9 (4.54) |
| S35D F59D | ND / 2.83 / ND | 3 of 9 (3.77) |
| D54E T58A S63E | ND / ND / ND | 0 of 9 |
| L29T F59L S63H | ND / ND / ND | 0 of 9 |
| Y52K R100S T104L | ND / ND / ND | 2 of 9 (3.76) |
| F27P S31K K65N | ND / ND / ND | 1 of 9 (4.79) |
| Y32A G61L G103Q | 2.57 / 2.35 / 2.64 | 2 of 9 (3.72) |
| V50Q G99Y R100T | 4.56 / ND / ND | 2 of 9 (4.55) |
| L29T G33N G99D | ND / 3.45 / ND | 0 of 9 |
| D54R G61F R100A | ND / ND / ND | 0 of 9 |
| L29Q D54M F59I | ND / ND / ND | 0 of 9 |
| G55M R100I D106Q | ND / ND / ND | 0 of 9 |
| T28V G33K G61P | ND / ND / ND | 0 of 9 |
| I34E S53Q R100T | ND / ND / ND | 2 of 9 (4.01) |
| G33A G61H G99R | ND / 4.40 / ND | 2 of 9 (4.40) |
| Y32L Y60R D62A | ND / ND / ND | 0 of 9 |
| I34M G99I F105D | ND / ND / 5.49 | 2 of 9 (4.30) |
| G26L G103A | ND / ND / ND | 0 of 9 |
| L29T S31M | ND / 2.05 / 3.10 | 0 of 9 |
| S53V G99R A101I | 4.00 / 3.58 / 3.53 | 4 of 9 (4.56) |
| F27R L29Q T58L | ND / ND / ND | 0 of 9 |
| V64L A102E S107Y | ND / 3.56 / ND | 1 of 9 (4.65) |
| T28Q S53H T104S | 4.26 / 2.56 / ND | 0 of 9 |
| G26C I51S T104K | ND / 4.28 / ND | 2 of 9 (3.90) |
| L29G D62R G103A | 3.46 / ND / ND | 1 of 9 (3.47) |
| L29V G33Y Y52C | ND / 4.50 / 4.58 | 5 of 9 (4.84) |
| S31W G33K K65Q | ND / ND / ND | 0 of 9 |

Extract of 6 entries:

| changes | log10 Kd, replicates | empty controls |
|---|---|---|
| Y32L Y60R D62A | ND / ND / ND | 0 of 9 |
| G26N V64N G103Q | ND / ND / ND | 0 of 9 |
| L29F S31H R57M | ND / ND / ND | 0 of 9 |
| S53P G61C K65A | 2.68 / 2.44 / 2.24 | 0 of 9 |
| I34M G99I F105D | ND / ND / 5.49 | 2 of 9 (4.30) |
| I34E S53Q R100T | ND / ND / ND | 2 of 9 (4.01) |